Each structure is given as a SMILES string. Several values for one entry are separate records, joined by “and”; a condition that tells them apart may be missing. Identical values can stand only once. The campaign covered roughly 350,000 compounds. About 450 (0.13%) were called active.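 How the source made its calls: active means replicate mean at a twofold rise or more (about +100% in these data); inactive means the rest.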 The list comes from a sample in which actives are over-represented; it also holds similar structures and randomly drawn compounds. Some compounds were tested as several samples or in several runs, with calls that do not always agree.

This test is described as follows: UUG initiation codon usage in yeast – whole organism, S. cerevisiae, single point, plate reader, primary screen (AID 602363).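 Further: firefly luciferase made from a UUG start codon reports start codon fidelity.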 To be noted: S. cerevisiae UUG-firefly luciferase reporter, luminescence/redox ratio; at 18.7 µM; stronger effect = higher value.
As to `O=C(C[C@@H]1C[C@H]2c3cc(NC(=O)NC4CCCCC4)ccc3O[C@H]2[C@H](CO)O1)NCc1ccncc1`, the activity score was 1.45% (inactive). For the molecule `CCCN1C[C@H](C)[C@H](OC)CN(C)C(=O)c2cc(NC(=O)C3CCOCC3)ccc2OC[C@@H]1C`, the activity score was 7.64% (inactive). Turning to `C[C@H](CO)N1C[C@H](C)[C@@H](CN(C)Cc2ccc(Cl)c(Cl)c2)Oc2ccc(NC(=O)Nc3ccc(C(F)(F)F)cc3)cc2CC1=O`, the activity score is -6.41% (inactive). `COc1ccc(S(=O)(=O)N(C)C[C@@H]2OCCCC[C@@H](C)Oc3ccc(NC(=O)c4ccccc4)cc3C(=O)N([C@@H](C)CO)C[C@H]2C)cc1`: the activity score was -7.34% (inactive). For the molecule `CO[C@H]1CN(C)C(=O)c2cc(NC(=O)Nc3cccc(F)c3)ccc2OC[C@H](C)N(C(C)=O)C[C@H]1C`, the activity score was 2.41% (inactive). As to `CCCc1cn(CC[C@@H]2CC[C@@H](NS(=O)(=O)c3ccccc3Cl)[C@@H](CO)O2)nn1`, the activity score is -13.1% (inactive). Regarding `CN1C[C@@H]2[C@H](c3ccccc31)[C@@H](CO)N2C(=O)Nc1ccccc1`, the activity score is -3.49% (inactive). Consider `C[C@@H]1CN([C@H](C)CO)C(=O)c2cc(NC(=O)c3ccncc3)ccc2O[C@H]1CN(C)C(=O)Nc1ccc(C(F)(F)F)cc1`, for which the activity score is -1.07% (inactive). Regarding `CCC(=O)N1C[C@@H](C)[C@H](OC)CN(C)C(=O)c2ccc(NC(=O)Nc3ccccc3)cc2OC[C@@H]1C`, the activity score was 40.8% (inactive). In the case of `C[C@H]1CCCCO[C@H](CN(C)C(=O)NC2CCCCC2)[C@@H](C)CN([C@@H](C)CO)C(=O)c2cc(NC(=O)Nc3ccc4c(c3)OCO4)ccc2O1`, the activity score is -4.52% (inactive).

`C[C@H]1CCCCO[C@H](CN(C)Cc2ccc(C(F)(F)F)cc2)[C@@H](C)CN([C@@H](C)CO)C(=O)c2cc(NC(=O)C3CCCCC3)ccc2O1`: the activity score is 13.7% (inactive). Consider `O=C(Nc1ccc(Cl)cc1)C1c2cccc[n+]2CC(=O)N1Cc1ccc2c(c1)OCO2` (configuration not stated), for which the activity score was -9.17% (inactive).

`CC1CCC(NC(=O)C2c3ccccc3C(=O)N2Cc2ccc3c(c2)OCO3)CC1` (configuration not stated): the activity score was 619% (active). As to `CCc1ccc(CN2C(=O)c3ccccc3C2C(=O)NCC2CCCO2)cc1` (configuration not stated), the activity score was -17.4% (inactive). `COc1ccc(S(=O)(=O)Nc2ccc3c(c2)CC(=O)N([C@H](C)CO)C[C@@H](C)[C@H](CN(C)S(=O)(=O)c2c(C)noc2C)O3)cc1`: the activity score was -0.184% (inactive). Consider `N#C[C@@H]1[C@H](c2ccc(C#Cc3cccc(F)c3)cc2)[C@@H](CO)N1C(=O)C1CCCC1`, for which the activity score is -38.1% (inactive). In the case of `CN(C)CC(=O)N[C@@H]1CC[C@H](CC(=O)NCc2ccc(Cl)cc2)O[C@H]1CO`, the activity score is -7.2% (inactive). To `O=C(NCC[C@@H]1CC[C@H](NC(=O)C2CC2)[C@@H](CO)O1)c1cc(Cl)cc(Cl)c1` belongs 4.52% (inactive); to `C[C@@H]1CN([C@H](C)CO)C(=O)c2cc(-c3ccc(C#N)cc3)cnc2O[C@@H]1CN(C)CC1CC1`, -0.028% (inactive). Take `CO[C@H]1CN(C)C(=O)c2cc(NS(C)(=O)=O)ccc2OC[C@@H](C)N(Cc2ccccc2)C[C@@H]1C`: the activity score is 1.29% (inactive).

Consider `CC(=O)Nc1ccccc1-c1cn(CC(=O)N2CCOCC2)nn1`, for which the activity score is 127% (active).

In the case of `CCOC(=O)c1ccccc1NC(=O)COC(=O)CCC(=O)N1CCOCC1`, the activity score was 19.5% (inactive). Next, `CC(=O)Nc1ccccc1OC(=O)N1CCOCC1`: -18.2% (inactive); `C[C@H](CO)N1C[C@H](C)[C@H](CN(C)Cc2ccc(Cl)c(Cl)c2)OCCCC[C@H](C)Oc2ccc(NC(=O)NC3CCCCC3)cc2C1=O`: -1.13% (inactive). `CCc1cccc(C)c1N(C(=O)Cn1c(CO)nc2ccccc21)C(C)COC` (configuration not stated): the activity score was 593% (active). For the molecule `Cc1ccccc1OC(=O)Cn1c(C(F)(F)F)nc2ccccc21`, the activity score was -13% (inactive). In the case of `CCOCN(C(=O)Cn1c(C(C)O)nc2ccccc21)c1c(C)cccc1CC` (configuration not stated), the activity score is -13.4% (inactive). For the molecule `COc1cc(C(=O)NCc2nnc(SCC(=O)c3ccc(Cl)cc3)o2)cc(OC)c1OC`, the activity score is -3.27% (inactive). To `O=C(COc1ccc(Cl)cc1)NCc1nnc(SCC(=O)NCC2CCCO2)o1` (configuration not stated) belongs 199% (active); to `COc1ccc2c(C)cc(SCC(=O)NCC3CCCO3)nc2c1` (configuration not stated), -4.78% (inactive).

Consider `O=S(=O)(N[C@@H]1CC[C@@H](CCn2cc(-c3ccccn3)nn2)O[C@@H]1CO)c1cccc(Cl)c1`, for which the activity score is -16.7% (inactive).

With `C[C@@H]1CN([C@@H](C)CO)C(=O)c2cccc(NC(=O)Nc3ccc4c(c3)OCO4)c2O[C@@H]1CN(C)C(=O)Nc1ccc(F)cc1`, the activity score is -5.75% (inactive). For `CS(=O)(=O)Nc1ccc2c(c1)[C@H]1C[C@@H](CC(=O)N3CCOCC3)O[C@@H](CO)[C@H]1O2`, the activity score was -23.5% (inactive). In the case of `C[C@H](CO)N1C[C@H](C)[C@@H](CN(C)S(C)(=O)=O)Oc2cc(C#CC3CC3)ccc2S1(=O)=O`, the activity score was 13.1% (inactive).

Consider `O=C(NC(=S)Nc1ccccc1N1CCCCC1)c1ccc(F)cc1`, for which the activity score was -15.2% (inactive). Take `O=C(Nc1ccccc1N1CCCC1)c1ccc2ccccc2c1`: the activity score is -12.9% (inactive). Regarding `c1ccc(-n2cccc2)c(N2CCCCC2)c1`, the activity score was 101% (active). On to `C[C@@H]1CCCCO[C@H](CN(C)Cc2ccccc2)[C@@H](C)CN([C@@H](C)CO)C(=O)c2cc(NC(=O)Nc3ccc(F)cc3)ccc2O1`, for which the activity score is 33.7% (inactive). As for `C[C@H](CO)N1C[C@H](C)[C@@H](CN(C)C)Oc2c(NC(=O)Nc3ccc(F)cc3)cccc2C1=O`, the activity score was 17.5% (inactive). Next, `CC(C)C#Cc1ccc2c(c1)O[C@H](CN(C)Cc1ccccn1)[C@H](C)CN([C@H](C)CO)S2(=O)=O`: -7.68% (inactive); `CO[C@H]1CN(C)C(=O)c2cc(NC(=O)C3CCCCC3)ccc2OC[C@H](C)N(C(=O)c2ccccc2)C[C@H]1C`: -6.56% (inactive). For the molecule `C[C@H](CO)N1C[C@H](C)[C@H](CN(C)S(=O)(=O)c2cn(C)cn2)Oc2c(NC(=O)C3CCOCC3)cccc2C1=O`, the activity score was -12.8% (inactive). For `COc1ccc(NC(=O)N(C)C[C@H]2OCCCC[C@@H](C)Oc3ccc(NC(=O)NC4CCCCC4)cc3C(=O)N([C@@H](C)CO)C[C@H]2C)cc1`, the activity score is 107% (active). Take `COc1ccc(NC(=O)N(C)C[C@H]2OCCCC[C@@H](C)Oc3ccc(NC(=O)NC4CCCCC4)cc3C(=O)N([C@H](C)CO)C[C@H]2C)cc1`: the activity score is 21.6% (inactive).

Turning to `COc1ccc(NC(=O)N(C)C[C@@H]2OCCCC[C@@H](C)Oc3ccc(NC(=O)NC4CCCCC4)cc3C(=O)N([C@H](C)CO)C[C@@H]2C)cc1`, the activity score was 2.02% (inactive).

Take `C[C@@H]1CN([C@H](C)CO)C(=O)c2cc(C#CC3CCCC3)cnc2O[C@H]1CN(C)C(=O)C1CC1`: the activity score was -6.27% (inactive). Next, `C[C@@H]1CN([C@H](C)CO)C(=O)Cc2cc(NS(=O)(=O)c3ccc(Cl)cc3)ccc2O[C@H]1CN(C)S(=O)(=O)c1cccs1`: -8.01% (inactive); `O=C(Cc1ccncc1)NCC[C@@H]1CC[C@H](NC(=O)Nc2ccc(Cl)cc2)[C@@H](CO)O1`: 34.2% (inactive); `CN1CCN(C(=O)/C(=C\c2cccs2)NC(=O)c2cccs2)CC1`: 0.022% (active). For `Cc1ccc(C(=O)N/C(=C\c2cn(C)c3ccccc23)C(=O)N2CCN(C)CC2)cc1`, the activity score is 0.501% (inactive). Turning to `CC1CCN(C(=O)/C(=C\c2ccccc2)NC(=O)c2ccccc2)CC1`, the activity score is -8.7% (inactive).

Take `CCNC(=O)C[C@@H]1CC[C@@H]2[C@H](COc3ccc(NS(=O)(=O)c4ccccc4C)cc3C(=O)N2C)O1`: the activity score was -8.72% (inactive). For `O=C(C[C@@H]1C=C[C@H](NC(=O)c2ccc3c(c2)OCO3)[C@H](CO)O1)NCc1ccc(Oc2ccccc2)cc1`, the activity score was 8.13% (inactive). For `Cc1noc(C)c1S(=O)(=O)N(C)C[C@@H]1OCCCC[C@H](C)Oc2ccc(NC(=O)NC(C)C)cc2C(=O)N([C@H](C)CO)C[C@@H]1C`, the activity score was 27% (inactive).

With `CC(C)C#Cc1cnc2c(c1)C(=O)N([C@@H](C)CO)C[C@@H](C)[C@@H](CN(C)C(=O)c1cccc(F)c1)O2`, the activity score was 0.693% (inactive).

For the molecule `C[C@@H]1CCCCO[C@@H](CN(C)C(=O)C2CCCCC2)[C@H](C)CN([C@H](C)CO)C(=O)c2cc(NC(=O)CCC(F)(F)F)ccc2O1`, the activity score is 21.1% (inactive).

For the molecule `COc1ccccc1CNC(=O)C[C@@H]1CC[C@H](NC(=O)CN(C)C)[C@@H](CO)O1`, the activity score is -14.1% (inactive). On to `COc1ccc(NC(=O)Nc2ccc3c(c2)C(=O)N([C@@H](C)CO)C[C@@H](C)[C@H](CN(C)C(=O)CCC(F)(F)F)OCCCC[C@@H](C)O3)cc1`, for which the activity score was 5.29% (inactive). Turning to `COc1cccc(-c2ccc3c(c2)O[C@H](CN(C)C(=O)c2ccccc2F)[C@@H](C)CN([C@@H](C)CO)S3(=O)=O)c1`, the activity score was 0.848% (inactive). With `CCCNC(=O)[C@@H]1[C@@H](CO)[C@@H]2Cn3c(ccc(-c4cccc(OC)c4)c3=O)[C@H]1N2C(=O)NCCC`, the activity score is 4.04% (inactive). Take `C[C@H]1CN([C@@H](C)CO)C(=O)Cc2cc(NS(=O)(=O)c3ccc(Cl)cc3)ccc2O[C@H]1CN(C)S(C)(=O)=O`: the activity score is -4.94% (inactive).

Regarding `Cc1onc(-c2ccc(Cl)cc2)c1-c1ccnn1S(=O)(=O)c1ccc(Cl)cc1`, the activity score was 174% (active). On to `COc1cc(-c2c(-c3ccc4c(c3)OCO4)noc2C)ccc1F`, for which the activity score is -5.42% (inactive). With `Cn1nc(-c2ccccc2)c(-c2nc(-c3ccc(Cl)cc3)no2)c1Cl`, the activity score is -23.8% (inactive).

Consider `C[C@H]1CN([C@@H](C)CO)S(=O)(=O)c2ccc(Br)cc2O[C@H]1CN(C)C(=O)C1CC1`, for which the activity score is 11.3% (inactive). As for `CO[C@@H]1CN(C)C(=O)c2cc(NC(C)=O)ccc2OC[C@H](C)N(C(=O)Cc2ccccn2)C[C@@H]1C`, the activity score was -3.54% (inactive). Turning to `C[C@@H]1CN([C@@H](C)CO)C(=O)c2cc(NC(=O)c3ccncc3)ccc2O[C@H]1CN(C)S(=O)(=O)c1ccc(Cl)cc1`, the activity score is 0.708% (inactive).

With `C[C@@H]1CN([C@@H](C)CO)C(=O)c2cc(Br)cnc2O[C@@H]1CN(C)C(=O)C1CCCCC1`, the activity score is 137% (active) and -1.46% (inactive). On to `C[C@@H]1CN([C@H](C)CO)C(=O)c2cc(Br)cnc2O[C@@H]1CN(C)C(=O)C1CC1`, for which the activity score was -8.5% (inactive). As to `C[C@H]1CN([C@@H](C)CO)C(=O)c2cc(-c3ccncc3)cnc2O[C@@H]1CN(C)C(=O)C1CCCCC1`, the activity score was -11.6% (inactive). Next, `CCC(=O)N(C)C[C@H]1Oc2cc(-c3cccc(C#N)c3)ccc2S(=O)(=O)N([C@@H](C)CO)C[C@@H]1C`: 12.2% (inactive); `CCS(=O)(=O)Nc1ccc2c(c1)C(=O)N(C)[C@H]1CC[C@H](CC(=O)Nc3ccccc3)O[C@@H]1CO2`: 1.74% (inactive). For the molecule `CC(C)NC(=O)N[C@H]1CC[C@@H](CCNC(=O)C2CCC2)O[C@@H]1CO`, the activity score was -11.4% (inactive). For `COc1ccccc1-c1ccc([C@@H]2[C@@H](CO)N3CCCCN(S(=O)(=O)c4cn(C)cn4)C[C@H]23)cc1`, the activity score is -0.721% (inactive). In the case of `COc1ccc(NC(=O)N(C)C[C@@H]2Oc3ccc(NC(=O)Cn4cnnn4)cc3C(=O)N([C@H](C)CO)C[C@@H]2C)cc1`, the activity score is 2.52% (inactive). Consider `O=C(N[C@H]1CC[C@H](CCNS(=O)(=O)c2ccc(F)cc2)O[C@H]1CO)c1cccnc1`, for which the activity score was -1.19% (inactive).

`C[C@H]1CCCCO[C@@H](CN(C)Cc2ccc3c(c2)OCO3)[C@@H](C)CN([C@@H](C)CO)C(=O)c2cc(NC(=O)Nc3ccc(F)cc3)ccc2O1`: the activity score was 18.3% (inactive).
